Molecular target: rat 5-HT7 receptors (Rattus norvegicus (Rat), UniProt P32305)
Experiment: r5-HT7 competitive radioligand binding assay ([3H]5-CT)
Settings: membrane fractions of HEK-293 cells recombinantly expressing rat 5-HT7
Procedure: Compound affinity for the rat 5-HT7 receptor subtype was evaluated by competitive radioligand binding assays using 5-carboxamido[^3H]tryptamine ([^3H]5-CT) (Amersham Biosciences, cat. 90000403) detection. HitHunter™ cAMP assays are in-vitro based competitive immunoassays. […] Cells were pre-incubated with test compounds for 10 minutes. For agonistic testing, the concentration of test compound that produced a half-maximal response is represented by the EC50 value. Compounds were assayed in their free form or as salts, as indicated in the Examples section above.

Sequences of proteins named here, by UniProt entry; tags and fusion partners are left off. Residues count along the entry.
UniProt P32305, 1-435: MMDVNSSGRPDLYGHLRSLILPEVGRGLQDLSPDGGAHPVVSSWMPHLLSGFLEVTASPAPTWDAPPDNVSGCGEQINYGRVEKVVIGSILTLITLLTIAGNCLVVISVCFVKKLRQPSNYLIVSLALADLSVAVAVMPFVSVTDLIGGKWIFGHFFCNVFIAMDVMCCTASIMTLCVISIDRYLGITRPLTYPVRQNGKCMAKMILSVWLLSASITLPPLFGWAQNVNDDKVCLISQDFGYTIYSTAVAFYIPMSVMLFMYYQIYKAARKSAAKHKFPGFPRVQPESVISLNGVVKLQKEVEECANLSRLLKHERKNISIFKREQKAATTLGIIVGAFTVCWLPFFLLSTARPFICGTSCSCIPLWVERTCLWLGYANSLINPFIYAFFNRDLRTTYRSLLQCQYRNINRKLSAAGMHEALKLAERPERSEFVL

Row | Ki [nM] | Structure (SMILES)
1 | 310 | Cc1cccc(-c2ccccc2C2CCN(C)C2)c1 (racemic) [Example 53, (±)-1-Methyl-3-(3′-methyl-biphenyl-2-yl)-pyrrolidine]
2 | 155 | Cc1ccc(-c2ccccc2C2CCN(C)C2)cc1C (racemic) [Example 58, (±)-3-(3′,4′-Dimethyl-biphenyl-2-yl)-1-methyl-pyrrolidine]

— patent US8575364B2, “Modulators of serotonin receptor” (Janssen Pharmaceutica NV, priority 2008, dated 2013)
